The list shows a part of the results, in another mix than the full data. Calls of active or inactive are those of the source.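 The calls were made as follows: active = inhibition above a per-plate cutoff, the mean inhibition of test compounds on that plate plus 3 SD (cut at about 49% in these data); inactive = the rest.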

Sequences of proteins named here, by UniProt entry; tags and fusion partners are left off.
UniProt Q96RJ0, whole entry: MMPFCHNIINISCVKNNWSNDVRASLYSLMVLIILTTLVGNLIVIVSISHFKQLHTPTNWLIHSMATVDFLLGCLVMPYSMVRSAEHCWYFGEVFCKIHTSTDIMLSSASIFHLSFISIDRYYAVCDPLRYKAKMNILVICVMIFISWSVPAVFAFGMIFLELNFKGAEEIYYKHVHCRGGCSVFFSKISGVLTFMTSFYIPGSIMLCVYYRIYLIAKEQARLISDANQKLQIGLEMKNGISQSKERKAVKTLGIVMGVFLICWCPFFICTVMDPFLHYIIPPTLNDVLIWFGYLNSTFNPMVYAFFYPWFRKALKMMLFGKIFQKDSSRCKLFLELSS

The assay has as its target Trace amine-associated receptor 1 (Homo sapiens) (UniProt Q96RJ0). As to the kind of experiment: human TAAR1 antagonists, primary screen, Fluo-8 calcium fluorescence, CHO RD-HGA16 cells (AID 624466).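 Also: 0% = DMSO plus EC80 beta-PEA response and 100% = DMSO alone without agonist.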 The conditions noted are these: CHO RD-HGA16 TAAR1, Fluo-8 calcium fluorescence, antagonist; at 3 µM; hits give high values.
Turning to `CCN1CCC(Nc2ccc(Cl)cc2)CC1`, the inhibition was inactive: -13.5%.

`N#CC1(Nc2ccccc2)CCN(CCc2ccccc2)CC1`: the inhibition was inactive: -5.38%. As for `O=c1[nH]c2ccccc2n1C1CCN(C(c2ccccc2OC(F)(F)F)c2nnnn2C2CCCC2)CC1` (stereo not drawn), the figure is inactive: 40.5%.

As for `CSc1ccc(C(=O)NCC2(N3CCOCC3)CCCCC2)cc1`, the inhibition was inactive: -32.1%. As for `O=C(NCC1(N2CCCCC2)CCCCC1)c1cccc([N+](=O)[O-])c1`, the figure is inactive: -10.3%; as for `CC(C)(C)n1nnnc1C(c1ccccc1OC(F)(F)F)N1CCC(n2c(=O)[nH]c3ccccc32)CC1` (stereo not drawn), inactive: 35.6%. To `O=C(NCC1(N2CCCCC2)CCCCC1)c1ccc(OC(F)F)cc1` belongs inactive: -1.59%.

For the compound `O=C(NCC1(N2CCOCC2)CCCCC1)c1cc(=O)[nH]c2ccccc12`, the inhibition was inactive: -3.86%.

`COc1cc(C(=O)NCC2(N3CCCCC3)CCCCC2)ccc1OC(F)F`: the inhibition was inactive: -11.9%.

Regarding `CCCCn1nnnc1C(c1cccc2ccccc12)N1CCC(n2c(=O)[nH]c3ccccc32)CC1` (stereo not drawn), the inhibition was inactive: 37.6%. To `COc1ccc(NC2CCN(C(=O)OC(C)(C)C)CC2)cc1` belongs inactive: -29.1%; to `CC(C)c1ccc(C(=O)NCC2(N3CCOCC3)CCCCC2)cc1`, inactive: -33.4%.

Regarding `CN1CCN(CCOC(=O)C(O)(c2ccccc2)c2ccccc2)CC1`, the inhibition was inactive: -1.68%. Consider `O=C(NCC1(N2CCCCC2)CCCCC1)c1cccc(C(F)(F)F)c1`, for which the inhibition is inactive: 4.38%.

As for `COc1cc(OC)c(C(=O)NCC2(N(C)C)CCCCC2)cc1OC`, the inhibition is inactive: -5.97%.

Consider `CCC(c1nnnn1C(C)(C)C)N1CCC(n2c(=O)[nH]c3ccccc32)CC1` (stereo not drawn), for which the inhibition was inactive: -1.76%. As for `O=C(NCC1(N2CCOCC2)CCCCC1)c1cc(F)c(F)cc1Cl`, the figure is inactive: -4.91%; as for `CCCCn1nnnc1C(c1ccnc2ccccc12)N1CCC(n2c(=O)[nH]c3ccccc32)CC1` (stereo not drawn), inactive: 46.5%; as for `CC(C)c1ccc(NC2CCN(C(=O)OC(C)(C)C)CC2)cc1`, inactive: -9.95%. To `COc1ccc(CN(CCCl)CCCl)cc1Cl` belongs inactive: 6.98%; to `CN(C)c1cccc(C(=O)NCC2(N3CCCCC3)CCCCC2)c1`, inactive: -22.1%; to `COc1ccc(C(c2nnnn2C2CCCC2)N2CCC(n3c(=O)[nH]c4ccccc43)CC2)cc1` (stereo not drawn), inactive: -13.6%. For `Cc1ccc(C(=O)NCC2(N(C)C)CCCCC2)o1`, the inhibition was inactive: -18.3%.

With `CCCOc1ccc(C(=O)NCC2(N(C)C)CCCCC2)cc1OC`, the inhibition is inactive: 0.92%. As for `O=C(NCC1(N2CCCCC2)CCCCC1)c1cncc(Br)c1`, the figure is inactive: 6.56%.

Turning to `CN1CCC(Nc2cccc(F)c2)CC1`, the inhibition was inactive: -7.36%. To `CSc1ccccc1C(=O)NCC1(N2CCCCC2)CCCCC1` belongs inactive: 3.79%. As for `Cc1cccc(NC2(C#N)CCN(Cc3ccccc3)CC2)c1`, the figure is inactive: -19.2%; as for `COc1ccc(C(=O)NCC2(N3CCCCC3)CCCCC2)cc1`, inactive: 12.9%. `CCC(c1nnnn1C1CCCC1)N1CCC(n2c(=O)[nH]c3ccccc32)CC1` (stereo not drawn): the inhibition is inactive: 13%. In the case of `COc1ccc(C(=O)NCC2(N3CCCCC3)CCCCC2)c(OC)c1OC`, the inhibition was inactive: 7.78%.

On to `CC(C)(C)OC(=O)N1CCC(N(C(=O)c2ccccc2)c2ccc(F)cc2)CC1`, for which the inhibition was inactive: -3.15%. Take `O=C(NCC1(N2CCCCC2)CCCCC1)c1ccc(=O)[nH]c1`: the inhibition is inactive: -12%. To `CCCCn1nnnc1C(c1cccs1)N1CCC(n2c(=O)[nH]c3ccccc32)CC1` (stereo not drawn) belongs active: 59.9%; to `CCCCn1nnnc1C(CC)N1CCC(n2c(=O)[nH]c3ccccc32)CC1` (stereo not drawn), inactive: 30.8%; to `O=C(NCC1(N2CCCCC2)CCCCC1)c1cccs1`, inactive: -5.5%. As for `O=c1[nH]c2ccccc2n1C1CCN(C(c2cc3ccccc3o2)c2nnnn2C2CCCCC2)CC1` (stereo not drawn), the figure is inactive: 39.5%; as for `O=C(OC1CN2CCC1CC2)C1c2ccccc2Oc2ccccc21` (stereo not drawn), inactive: -6.1%; as for `N#CC1(Nc2ccccc2)CCN(Cc2ccccc2)CC1`, inactive: -6.65%. As for `O=C(NCC1(N2CCCCC2)CCCCC1)c1ccc(Cl)s1`, the figure is inactive: -10.8%; as for `COc1ccc(Cl)cc1C(=O)NCC1(N2CCOCC2)CCCCC1`, inactive: -9.02%. For the compound `CCOC(=O)N1CCC(Nc2ccc(OC)cc2)CC1`, the inhibition is inactive: -12.7%. For `CCCCn1nnnc1C(c1ccc(OC)cc1)N1CCC(n2c(=O)[nH]c3ccccc32)CC1` (stereo not drawn), the inhibition was inactive: 11.3%. As to `O=c1[nH]c2ccccc2n1C1CCN(C(c2ccccc2OC(F)(F)F)c2nnnn2C2CCCCC2)CC1` (stereo not drawn), the inhibition is inactive: 17.9%.

In the case of `O=C(NCC1(N2CCCCC2)CCCCC1)c1ccc(Cl)nc1`, the inhibition was inactive: -30.6%. As for `Cc1cc(C)cc(N(C(=O)c2ccccc2)C2CCN(C(=O)OC(C)(C)C)CC2)c1`, the figure is inactive: -24.8%; as for `O=C(NCC1(N2CCOCC2)CCCCC1)c1cc2ccccc2o1`, inactive: 14.6%; as for `O=C(NCC1(N2CCCCC2)CCCCC1)c1ccc(F)cc1`, inactive: -3.25%. As for `CCCCOc1ccc(C(=O)NCC2(N3CCOCC3)CCCCC2)cc1`, the figure is inactive: -3.48%; as for `O=P1(N(CCCl)CCCl)SCCCS1`, inactive: -19.1%.

For `CCCCn1nnnc1C(c1cc2ccccc2o1)N1CCC(n2c(=O)[nH]c3ccccc32)CC1` (stereo not drawn), the inhibition is active: 53.7%. To `CCOC(=O)N1CCC(Nc2ccc(F)cc2)CC1` belongs inactive: -12.8%; to `COc1ccc(NC2CCN(CCc3ccccc3)CC2)c(OC)c1`, inactive: 7.94%; to `CC(C)(C)n1nnnc1C(c1ccccc1)N1CCC(n2c(=O)[nH]c3ccccc32)CC1` (stereo not drawn), inactive: 17%. As for `O=C1CCN(Cc2ccccc2)CC1`, the figure is inactive: -3.53%; as for `CCOc1ccc(C)cc1CN(CCCl)CCCl`, inactive: 10.6%; as for `COc1cc(C(=O)NCC2(N(C)C)CCCCC2)ccc1OC(F)F`, inactive: -12.4%. Turning to `CCOC(=O)N1CCC(Nc2cccc(C)c2)CC1`, the inhibition was inactive: -26.9%. As to `O=c1[nH]c2ccccc2n1C1CCN(C(c2cccc3ccccc23)c2nnnn2C2CCCC2)CC1` (stereo not drawn), the inhibition is inactive: 18.4%. As for `O=c1[nH]c2ccccc2n1C1CCN(C(c2ccccc2)c2nnnn2C2CCCCC2)CC1` (stereo not drawn), the figure is active: 63.4%; as for `Cc1ccc(C(=O)NCC2(N3CCCCC3)CCCCC2)o1`, inactive: -19.3%; as for `Fc1ccccc1NC1CCN(Cc2ccccc2)CC1`, inactive: -21.1%. As for `Cc1ccc(NC2(C#N)CCN(Cc3ccccc3)CC2)cc1`, the figure is inactive: -11.2%.

Take `CC(=O)N(c1ccccc1)C1CCNCC1`: the inhibition was inactive: -11.4%.

As to `COc1cccc(C(c2nnnn2C2CCCCC2)N2CCC(n3c(=O)[nH]c4ccccc43)CC2)c1OC` (stereo not drawn), the inhibition is active: 60.8%.

For the compound `CCC(c1nnnn1C1CCCCC1)N1CCC(n2c(=O)[nH]c3ccccc32)CC1` (stereo not drawn), the inhibition was inactive: -0.49%. As for `O=c1[nH]c2ccccc2n1C1CCN(C(c2ccnc3ccccc23)c2nnnn2C2CCCCC2)CC1` (stereo not drawn), the figure is active: 50.2%. To `COc1cc(OC)cc(C(=O)NCC2(N3CCCCC3)CCCCC2)c1` belongs inactive: -3.15%. To `O=C(NCC1(N2CCCCC2)CCCCC1)c1ccco1` belongs inactive: 5.04%.

Regarding `Cn1c(=O)[nH]cc(N(CCCl)CCCl)c1=O`, the inhibition was inactive: -11.3%. As for `CN(C)c1ccc(C(=O)NCC2(N3CCCCC3)CCCCC2)cc1`, the figure is inactive: -9.35%; as for `Cc1ccccc1NC1(C#N)CCN(Cc2ccccc2)CC1`, inactive: -9.4%. As for `CC(C)(C)n1nnnc1C(c1ccnc2ccccc12)N1CCC(n2c(=O)[nH]c3ccccc32)CC1` (stereo not drawn), the inhibition was inactive: 7.53%. Regarding `COc1ccc(C(c2nnnn2C2CCCCC2)N2CCC(n3c(=O)[nH]c4ccccc43)CC2)cc1` (stereo not drawn), the inhibition is inactive: 16.4%. To `CCN1CCC(Nc2cccc(F)c2)CC1` belongs inactive: -3.23%. As for `CC(C)(C)OC(=O)N1CCC(Nc2ccccc2)CC1`, the figure is inactive: -1.03%; as for `NN(c1ccccc1)C1CCN(CCc2ccccc2)CC1`, inactive: 4.39%.

As for `O=C(O)C1(Nc2ccccc2)CCN(Cc2ccccc2)CC1`, the inhibition is inactive: -8.96%. To `CCCOc1ccc(C(=O)NCC2(N(C)C)CCCCC2)cc1` belongs inactive: -23.5%; to `O=c1[nH]c2ccccc2n1C1CCN(C(c2cc3ccccc3o2)c2nnnn2C2CCCC2)CC1` (stereo not drawn), inactive: 35.4%; to `CCOc1ncccc1C(=O)NCC1(N2CCOCC2)CCCCC1`, inactive: 7.28%. To `CN1CCC(Nc2ccc(F)c(Cl)c2)CC1` belongs inactive: 6.79%; to `CN1CCC(Nc2ccc(Cl)cc2)CC1`, inactive: -3.61%. As for `COc1cccc(C(=O)N(c2cc(C)cc(C)c2)C2CCN(C(=O)OC(C)(C)C)CC2)c1`, the figure is inactive: 0.6%.

As to `COc1cccc(C(c2nnnn2C2CCCC2)N2CCC(n3c(=O)[nH]c4ccccc43)CC2)c1OC` (stereo not drawn), the inhibition is active: 62.4%. As for `COc1cc(OC)cc(C(=O)NCC2(N3CCOCC3)CCCCC2)c1`, the figure is inactive: -5.35%; as for `CCC(CO)(C(=O)OC1CN2CCC1CC2)c1ccccc1` (stereo not drawn), inactive: -3.08%. As for `O=c1[nH]c2ccccc2n1C1CCN(C(c2cccs2)c2nnnn2C2CCCCC2)CC1` (stereo not drawn), the figure is active: 63.2%; as for `COc1ccc(C(=O)NCC2(N3CCOCC3)CCCCC2)cc1OC`, inactive: 2.51%; as for `O=c1[nH]c2ccccc2n1C1CCN(C(c2ccnc3ccccc23)c2nnnn2C2CCCC2)CC1` (stereo not drawn), active: 51.9%. As for `CCCCn1nnnc1C(c1ccccc1)N1CCC(n2c(=O)[nH]c3ccccc32)CC1` (stereo not drawn), the figure is active: 70.2%; as for `COc1cc(C(=O)NCC2(N3CCOCC3)CCCCC2)cc(OC)c1C`, inactive: -7.41%. For the compound `O=C(NCC1(N2CCOCC2)CCCCC1)c1cc(Br)ccc1Cl`, the inhibition is inactive: -5.89%. `O=C(OC1CN2CCC1CC2)C1c2ccccc2C=Cc2ccccc21` (stereo not drawn): the inhibition is inactive: 8.99%.

With `O=c1[nH]c2ccccc2n1C1CCN(C(c2cccs2)c2nnnn2C2CCCC2)CC1` (stereo not drawn), the inhibition was active: 51.1%. As for `CCCCn1nnnc1C(c1cccc(OC)c1OC)N1CCC(n2c(=O)[nH]c3ccccc32)CC1` (stereo not drawn), the figure is active: 58.5%; as for `COc1cccc(C(c2nnnn2C(C)(C)C)N2CCC(n3c(=O)[nH]c4ccccc43)CC2)c1OC` (stereo not drawn), inactive: 36.1%. As for `CCOC(=O)N1CCC(Nc2ccc(C)cc2)CC1`, the figure is inactive: -23.1%; as for `N/C(=N\O)c1c(N)no[n+]1[O-]`, inactive: -0.16%; as for `N#Cc1ccc(C(=O)NCC2(N3CCCCC3)CCCCC2)cc1`, inactive: -4.6%.

In the case of `CC(C)(C)OC(=O)N1CCC(N(C(=O)c2ccccc2)c2ccc(Cl)cc2)CC1`, the inhibition was inactive: -22.5%. For the compound `CC(C)(C)n1nnnc1C(c1cccc2ccccc12)N1CCC(n2c(=O)[nH]c3ccccc32)CC1` (stereo not drawn), the inhibition was inactive: 33.7%.

As to `CN(C)C1(CNC(=O)c2cccc(C#N)c2)CCCCC1`, the inhibition is inactive: -20.5%. As to `c1ccc(CN2CCC(Nc3ccccc3)CC2)cc1`, the inhibition is inactive: 2.26%.

For `C/C(N)=N\P(=O)(Oc1ccccc1)Oc1ccccc1`, the inhibition was inactive: -6.75%.

Consider `O=c1[nH]c2ccccc2n1C1CCN(C(c2ccccc2)c2nnnn2C2CCCC2)CC1` (stereo not drawn), for which the inhibition is active: 54.4%. As for `CCCN1CCC(Nc2cc(OC)cc(OC)c2)CC1`, the figure is inactive: -19.3%. As for `Cc1cc(N(CCCl)CCCl)ccc1C=O`, the figure is inactive: 7.11%.

The record behind these values is PubChem BioAssay AID624466 (The Scripps Research Institute Molecular Screening Center, 2012).
